According to PubChem BioAssay (Tox21):
Values joined by “and” are separate entries in the source; they are usually repeats but may differ in a detail not shown here. Identical values can stand only once. The entries are a selection whose mix differs from that of the whole data set. Inconclusive results are not listed. Active and inactive are the calls of the source. Unless noted, the call rests on the fitted dose curve; in most records, active means well fitted curve in the direction sought with a large enough effect in the repeat runs; inconclusive means weak or mixed curves; inactive means no such curve, though single readings can be large; an effect the other way counts as inactive or inconclusive.

The chains behind the UniProt entries cited, without tags or fusion partners.
UniProt P11473, whole entry: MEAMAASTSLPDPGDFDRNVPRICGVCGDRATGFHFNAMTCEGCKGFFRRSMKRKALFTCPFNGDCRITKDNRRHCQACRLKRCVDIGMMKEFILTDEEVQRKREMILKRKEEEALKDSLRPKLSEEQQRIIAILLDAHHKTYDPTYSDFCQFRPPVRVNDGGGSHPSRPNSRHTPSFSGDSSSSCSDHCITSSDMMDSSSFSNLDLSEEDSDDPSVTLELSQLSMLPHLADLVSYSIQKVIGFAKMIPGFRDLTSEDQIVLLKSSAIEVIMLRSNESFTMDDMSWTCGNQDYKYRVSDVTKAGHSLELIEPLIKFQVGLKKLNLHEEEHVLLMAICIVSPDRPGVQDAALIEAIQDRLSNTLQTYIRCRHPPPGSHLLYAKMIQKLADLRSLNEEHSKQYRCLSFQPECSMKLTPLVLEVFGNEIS
UniProt Q03181, whole entry: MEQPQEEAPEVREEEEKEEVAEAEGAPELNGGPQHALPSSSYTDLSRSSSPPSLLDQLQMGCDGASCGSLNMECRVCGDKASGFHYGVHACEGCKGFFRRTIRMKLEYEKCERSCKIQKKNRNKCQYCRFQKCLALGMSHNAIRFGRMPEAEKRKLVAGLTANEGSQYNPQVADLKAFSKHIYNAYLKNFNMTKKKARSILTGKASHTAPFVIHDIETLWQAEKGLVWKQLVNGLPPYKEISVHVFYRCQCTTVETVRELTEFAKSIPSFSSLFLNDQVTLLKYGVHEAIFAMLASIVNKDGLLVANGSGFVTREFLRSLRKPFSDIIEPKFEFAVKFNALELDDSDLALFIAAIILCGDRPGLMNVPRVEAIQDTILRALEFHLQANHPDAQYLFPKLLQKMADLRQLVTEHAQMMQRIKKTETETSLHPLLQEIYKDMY
UniProt Q96RI1, whole entry: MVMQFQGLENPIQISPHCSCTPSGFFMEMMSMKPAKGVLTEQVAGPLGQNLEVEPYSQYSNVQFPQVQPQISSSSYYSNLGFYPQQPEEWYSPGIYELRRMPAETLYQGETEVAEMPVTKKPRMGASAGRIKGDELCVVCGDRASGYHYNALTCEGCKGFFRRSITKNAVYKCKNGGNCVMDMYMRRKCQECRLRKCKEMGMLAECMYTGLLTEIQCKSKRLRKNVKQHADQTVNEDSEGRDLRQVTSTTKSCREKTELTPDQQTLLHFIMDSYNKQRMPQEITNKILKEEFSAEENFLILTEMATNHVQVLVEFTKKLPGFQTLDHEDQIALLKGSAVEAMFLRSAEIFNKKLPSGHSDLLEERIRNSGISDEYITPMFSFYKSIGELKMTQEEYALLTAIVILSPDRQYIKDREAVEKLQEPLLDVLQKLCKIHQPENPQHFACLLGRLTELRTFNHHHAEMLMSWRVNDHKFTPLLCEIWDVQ
UniProt P19793, whole entry: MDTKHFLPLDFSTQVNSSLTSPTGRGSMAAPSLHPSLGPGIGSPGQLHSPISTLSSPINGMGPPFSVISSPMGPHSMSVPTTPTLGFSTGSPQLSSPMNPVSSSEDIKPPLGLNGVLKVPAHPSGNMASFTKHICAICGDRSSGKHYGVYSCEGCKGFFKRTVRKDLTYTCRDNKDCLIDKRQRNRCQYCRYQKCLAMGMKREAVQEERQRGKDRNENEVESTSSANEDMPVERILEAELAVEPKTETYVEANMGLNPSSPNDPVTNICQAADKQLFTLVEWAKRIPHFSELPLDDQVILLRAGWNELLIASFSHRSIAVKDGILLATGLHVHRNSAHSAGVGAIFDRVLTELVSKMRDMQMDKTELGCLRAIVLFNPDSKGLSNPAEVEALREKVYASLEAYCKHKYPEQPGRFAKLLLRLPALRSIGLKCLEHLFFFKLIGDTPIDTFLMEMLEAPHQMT

What was measured:
[1] = qHTS assay to identify small molecule antagonists of the farnesoid-X-receptor (FXR) signaling pathway - cell viability counter screen (AID 743221; active means well fitted cell-killing curve with a large enough effect in the repeat runs, not every such curve was filed as active; further: on the % scale 0 is the no-effect control and ±100 the full control effect; nearly all actives have a fitted effect of over 50% in size); details: FXR-bla HEK293T viability, CellTiter-Glo luminescence, 16 h; at 62.6 µM (top of the series) unless noted
In short: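 Luminescence from CellTiter-Glo measures cytotoxicity in GeneBLAzer FXR-UAS-bla HEK 293T cells. Cells were exposed to compounds with 50 uM chenodeoxycholic acid (final) for 16 h at 37 C, in wells also used for the reporter readout.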

[2] = qHTS assay to identify small molecule agonists of the vitamin D receptor (VDR) signaling pathway - cell viability counter screen (AID 743224); details: VDR-bla HEK293T viability, CellTiter-Glo luminescence, 16 h; at 62.6 µM (top of the series) unless noted; further: on the % scale 0 is the no-effect control and ±100 the full control effect; nearly all actives have a fitted effect of over 50% in size
In short: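 Cells: VDR-bla, 2,000/well, settled 4 h. Treatment: compounds in DMSO, 16 h, 37C/5% CO2. Readout: CellTiter-Glo luminescence after 30 min RT.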

[3] = qHTS assay to identify small molecule agonists of the NFkB signaling pathway (AID 1159509; active means well fitted curve in the direction sought with a large enough effect in the signal ratio in the repeat runs, not every such curve was filed as active; the % refers to the signal ratio; further: on the % scale 0 is the no-effect control and ±100 the full control effect); details: NFkB-bla ME-180 cells, beta-lactamase FRET ratio, 5 h; at 61 µM (top of the series)
In short: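 Readout: FRET fluorescence, 405 nm excitation, 460/530 nm emission; beta-lactamase expression disrupts FRET. Cells: ME-180 stably carrying NF-kB-driven bla reporter. Compound exposure 5 hr, 37 C, 5% CO2.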

[4] = qHTS assay to identify small molecule agonists of the NFkB signaling pathway - cell viability counter screen (AID 1159515; calls by dose curve; further: on the % scale 0 is the no-effect control and ±100 the full control effect; nearly all actives have a fitted effect of over 55% in size); details: NFkB-bla ME-180 viability, CellTiter-Glo luminescence, 5 h; at 61 µM (top of the series)
In short: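 Cells are seeded (2,000 NFkB-bla ME-180 per well), rested overnight, and dosed with DMSO-dissolved compounds for 5 hr at 37 C. Viability is then read by CellTiter-Glo luminescence after 30 min at room temperature.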

[5] = qHTS assay to identify small molecule agonists of the AP-1 signaling pathway - cell viability counter screen (AID 1159525; calls by dose curve; further: nearly all actives have a fitted effect of over 55% in size); details: ME-180 AP-1-bla cells viability, ATP luminescence, 5 h
In short: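 Same-well cytotoxicity counter screen of the Tox21 10K library in ME-180 cells. The readout is ATP-dependent luminescence after 5 h compound treatment. Data are normalised to DMSO and tetra n-octyl ammonium bromide controls.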

[6] = qHTS assay to identify small molecule antagonists of the peroxisome proliferator-activated receptor delta (PPARd) signaling pathway - cell viability counter screen (AID 743213); details: PPARd-bla HEK293H viability, CellTiter-Glo luminescence, 17 h; at 80.4 µM (top of the series) unless noted; further: on the % scale 0 is the no-effect control and ±100 the full control effect; nearly all actives have a fitted effect of over 50% in size
In short: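 HEK293H PPARd UAS-bla cells, 5 h pre-incubation, compound + L165041 300 nM final, 17 h 37 C; B/G FRET substrate 2 h RT; then CellTiter-Glo 30 min RT, luminescence.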

[7] = qHTS assay to identify small molecule agonists of the farnesoid-X-receptor (FXR) signaling pathway - cell viability counter screen (AID 743218); details: FXR-bla HEK293T viability, CellTiter-Glo luminescence, 16 h; at 81.1 µM (top of the series) unless noted; further: on the % scale 0 is the no-effect control and ±100 the full control effect; nearly all actives have a fitted effect of over 45% in size
In short: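 Cells were seeded, left 5 h at 37 C and 5% CO2, then dosed with compound in DMSO for 16 h. After the beta-lactamase FRET read, CellTiter-Glo was added and luminescence measured 30 min later.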

[8] = target: Vitamin D3 receptor (Homo sapiens) (UniProt P11473); assay: qHTS assay to identify small molecule agonists of the vitamin D receptor (VDR) signaling pathway (AID 743222; calls by dose curve; further: on the % scale 0 is the no-effect control and ±100 the full control effect); details: HEK293T VDR-UAS-bla, beta-lactamase FRET ratio, 16 h; at 81.1 µM (top of the series) unless noted
In short: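 Cells carrying a VDR-driven beta-lactamase reporter are seeded at 2,000 per well and rested 4 h. Compounds in DMSO are added for 16 h at 37C, and FRET substrate fluorescence is measured after 2 h at room temperature.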

[9] = target: Vitamin D3 receptor (Homo sapiens) (UniProt P11473); assay: qHTS assay to identify small molecule antagonists of the vitamin D receptor (VDR) signaling pathway (AID 743223; active means well fitted inhibition curve with a large enough effect in the signal ratio in the repeat runs, not every such curve was filed as active; the % refers to the signal ratio; further: on the % scale 0 is the no-effect control and ±100 the full control effect); details: VDR-UAS-bla HEK293T, beta-lactamase FRET ratio, 16 h; at 61 µM (top of the series)
In short: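 Antagonist mode uses 1alpha,25-dihydroxyvitamin D3 at 3 nM final as stimulus. VDR-bla cells receive compounds in DMSO, incubate 16 h at 37C, then a beta-lactamase FRET substrate for 2 h at room temperature before fluorescence measurement.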

[10] = qHTS assay to identify small molecule antagonists of the vitamin D receptor (VDR) signaling pathway - cell viability counter screen (AID 743225); details: VDR-bla HEK293T viability, CellTiter-Glo luminescence, 16 h; at 61 µM (top of the series); further: on the % scale 0 is the no-effect control and ±100 the full control effect; nearly all actives have a fitted effect of over 50% in size
In short: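 Read-out: CellTiter-Glo luminescence measured 30 min after reagent addition at room temperature. Cells were VDR-bla HEK 293T exposed 16 h at 37C, 5% CO2, to compound with 3 nM final calcitriol agonist.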

[11] = qHTS assay to identify small molecule agonists of the endoplasmic reticulum stress response signaling pathway (AID 1159516; active means well fitted activation curve with a large enough effect in the signal ratio in the repeat runs, not every such curve was filed as active; the % refers to the signal ratio; further: on the % scale 0 is the no-effect control and ±100 the full control effect); details: ESRE-bla HeLa, ER stress beta-lactamase reporter, 5 h; at 61 µM (top of the series)
In short: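 Cells are seeded at 1,500 per well and incubated overnight. Compounds in DMSO are added for 5 hr at 37 C, then beta-lactamase FRET substrate for 2 hr at room temperature, and fluorescence at 460 and 530 nm is measured.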

[12] = qHTS assay to identify small molecule agonists of the endoplasmic reticulum stress response signaling pathway - cell viability counter screen (AID 1159517; calls by dose curve); details: ESRE-bla HeLa viability, CellTiter-Glo luminescence, 5 h; at 61 µM (top of the series)
In short: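 Steps: seed 1,500 ESRE-bla HeLa cells per well; incubate overnight at 37 C, 5% CO2; add compounds in DMSO for 5 hr; run FRET substrate 2 hr RT; add CellTiter-Glo, wait 30 min, read luminescence.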

[13] = qHTS assay to identify small molecule antagonists of the retinoid-related orphan receptor gamma (ROR-gamma) signaling pathway - cell viability counter screen (AID 1159520); details: Tet-on RORgamma CHO cells viability, ATP luminescence, 16 h; at 92.4 µM (top of the series)
In short: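 Tet-on ROR gamma CHO cells were given compounds for 2 hr, then doxycycline hyclate at 1 uM final, and incubated 16 hr at 37 C. Viability was measured as ATP content by CellTiter-Glo luminescence.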

[14] = qHTS assay to identify small molecule agonists of the AP-1 signaling pathway (AID 1159526; calls by dose curve; further: on the % scale 0 is the no-effect control and ±100 the full control effect); details: ME-180 (cervical carcinoma) AP-1-bla reporter, beta-lactamase FRET ratio, 5 h; at 76.8 µM (top of the series)
[15] = qHTS assay to identify small molecule agonists of the RXR signaling pathway - cell viability counter screen (AID 1159529); details: RXR-alpha-bla HEK293T viability, CellTiter-Glo, 16 h; at 76.8 µM (top of the series)
In short: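 HEK 293T RXRa-bla cells, 2% CS-FBS; 5 h settle; cpd 16 h 37 C, 5% CO2; CellTiter-Glo 30 min RT, luminescence. Tetraoctyl ammonium bromide as positive control.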

[16] = target: Peroxisome proliferator-activated receptor delta (Homo sapiens) (UniProt Q03181); assay: qHTS assay to identify small molecule antagonists of the peroxisome proliferator-activated receptor delta (PPARd) signaling pathway (AID 743215; active means well fitted inhibition curve with a large enough effect in the signal ratio in the repeat runs, not every such curve was filed as active; the % refers to the signal ratio); details: HEK293H PPARd-UAS-bla, beta-lactamase FRET ratio, antagonist, 17 h; at 80.4 µM (top of the series)
In short: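 Cells: HEK293H with a UAS-driven beta-lactamase reporter responsive to PPARd. Compounds were co-added with L165041 (300 nM, final) and incubated 17 h at 37 C before a 2 h room-temperature FRET substrate step and fluorescence reading.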

[17] = target: Bile acid receptor (Homo sapiens) (UniProt Q96RI1); assay: qHTS assay to identify small molecule antagonists of the farnesoid-X-receptor (FXR) signaling pathway (AID 743217; active means well fitted inhibition curve with a large enough effect in the signal ratio in the repeat runs, not every such curve was filed as active; the % refers to the signal ratio; further: on the % scale 0 is the no-effect control and ±100 the full control effect); details: HEK293T FXR-UAS-bla, beta-lactamase ratio, CDCA-stimulated, 16 h; at 81.1 µM (top of the series)
In short: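 Cells carrying a UAS-driven beta-lactamase reporter (GeneBLAzer FXR-UAS-bla HEK 293T) were plated and rested 5 h at 37 °C. Compounds in DMSO were added alongside chenodeoxycholic acid agonist at 50 uM final and left 16 h at 37 °C before FRET substrate readout.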

[18] = target: Bile acid receptor (Homo sapiens) (UniProt Q96RI1); assay: qHTS assay to identify small molecule agonists of the farnesoid-X-receptor (FXR) signaling pathway (AID 743220; active means well fitted activation curve with a large enough effect in the signal ratio in the repeat runs, not every such curve was filed as active; the % refers to the signal ratio; further: on the % scale 0 is the no-effect control and ±100 the full control effect); details: HEK293T FXR-UAS-bla, beta-lactamase FRET ratio, 16 h; at 81.1 µM (top of the series)
[19] = target: Nuclear receptor ROR-gamma (Homo sapiens) (UniProt P51449); assay: qHTS assay to identify small molecule antagonists of the retinoid-related orphan receptor gamma (ROR-gamma) signaling pathway (AID 1159521); details: Tet-on RORgamma CHO cells, RORE-luciferase, 16 h; at 92.4 µM (top of the series)
[20] = target: Retinoic acid receptor RXR-alpha (Homo sapiens) (UniProt P19793); assay: qHTS assay to identify small molecule agonists of the RXR signaling pathway (AID 1159527; calls by dose curve; further: on the % scale 0 is the no-effect control and ±100 the full control effect; nearly all actives have a fitted effect of over 35% in size); details: HEK293T RXRa-UAS-bla, beta-lactamase ratio, 16 h; at 76.8 µM (top of the series)
In short: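 Read-out: beta-lactamase FRET ratio (405 nm excitation, 460 and 530 nm emission) after 2 hr substrate loading at room temperature. Cells were RXR-alpha-UAS-bla HEK 293T treated with compounds for 16 hr in 2% charcoal-stripped FBS medium.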

CN(CCCl)CCCl
inactive: activity change, negative = cytotoxicity [1] -11.6% and -9.25% | activity change, negative = cytotoxicity [2] -18.1% and 1.01% | activation [3] -1.53% and 0.763% | activity, negative = cytotoxic [4] 11.2% and -1.96% | viability change, negative = cytotoxic ([5]; at 35.3 µM (top of the series)) 0.454% | viability change, negative = cytotoxic ([5]; at 76.8 µM (top of the series)) -1.82%

O=[N+]([O-])C(Cl)(Cl)Cl
inactive: viability change, negative = cytotoxic [6] 8.8% [at 62 µM] | viability change, negative = cytotoxic [7] -0.846% [at 62.6 µM] | activity change, negative = cytotoxicity [1] -1.36% | activation [8] 6.41% [at 63.5 µM] | activity change, negative = inhibition [9] 1.56% | activity change, negative = cytotoxicity [2] 2.06% | viability change, negative = cytotoxic [10] -0.63% | activation [3] -0.794% | activity, negative = cytotoxic [4] -5.14% | activation [11] 3.91% | activity change, negative = cytotoxicity [12] -4.46% | activity, negative = cytotoxicity [13] -5.06% | viability change, negative = cytotoxic ([5]; at 76.8 µM (top of the series)) 1.49% | activation [14] -0.153% | activity change, negative = cytotoxicity [15] 8.86%

CCC(=O)N(c1ccccc1)C1(COC)CCN(CCn2nnn(CC)c2=O)CC1
inactive: viability change, negative = cytotoxic [6] -2.77% | ratio activity, negative = inhibition [16] 0.159% | activity change, negative = inhibition [17] -2.19% | viability change, negative = cytotoxic [7] -9.59% | activation [18] -4.82% | activity change, negative = cytotoxicity [1] -1.26% [at 81.1 µM] | activation [8] -6.99% | activity change, negative = inhibition [9] 6.28% | activity change, negative = cytotoxicity [2] -7.99% [at 81.1 µM] | viability change, negative = cytotoxic [10] -13.8% | activation [3] -0.754% | activity, negative = cytotoxic [4] -7.62% | activation [11] 0.711% | activity change, negative = cytotoxicity [12] -24.4% | activity, negative = cytotoxicity [13] -1.03% | activity change, negative = inhibition [19] 16.2% | viability change, negative = cytotoxic ([5]; at 76.8 µM (top of the series)) -1% | activation [14] -0.46% | activation [20] -0.402% | activity change, negative = cytotoxicity [15] 0.847%

CCC(=O)N(c1ccccc1)C1(COC)CCN(CCc2cccs2)CC1
inactive: viability change, negative = cytotoxic [6] -5.47% | ratio activity, negative = inhibition [16] 2.82% | activity change, negative = cytotoxicity [1] -7.83% [at 81.1 µM] | activity change, negative = cytotoxicity [2] -1.93% [at 81.1 µM] | viability change, negative = cytotoxic [10] -6.85% | activation [3] -0.175% | activity, negative = cytotoxic [4] -10.5% | activation [11] -4.29% | activity change, negative = cytotoxicity [12] -23.6% | activity, negative = cytotoxicity [13] -0.758% | activity change, negative = inhibition [19] -18.6% | viability change, negative = cytotoxic ([5]; at 76.8 µM (top of the series)) -4.23% | activation [14] 3.3% | activity change, negative = cytotoxicity [15] -14.4%
